Reference: patent US20250049831A1, “ANTIVIRAL USE OF BISE[…], AND BISEPOXYLIGNAN COMPOSITION AND PREPARATION OF BISE[…]” (priority 2021, published 2025)
Read-outs that look alike come from different tables or passages of the source.

Legend:
[1] = system: influenza virus
[2] = system: influenza virus; conditions: mouse, in vivo
[3] = system: COVID-19 Delta virus; assay: Lung histopathology of mice infected with COVID-19 Delta virus (treatment); conditions: number of mice with lesion grade, COVID-19 Delta virus infected mice
[4] = number of mice (4 lungs per group) with lesion grade, High dose (26 mg/kg), influenza virus infected mice
[5] = number of mice (4 lungs per group) with lesion grade, Low dose (13.0 mg/kg), influenza virus infected mice

COc1cc([C@H]2OC[C@H]3[C@@H]2CO[C@H]3c2ccc(OC)c(OC)c2)ccc1O [Serial No. 3, phillygenin]
20.48%: Lung index inhibition rate (%) ([2]; 3.25 mg/kg)
1.196 ± 0.084: Lung index (X ± S) ([2]; 3.25 mg/kg)
3: Interstitial pneumonia, Mild ([1]; mouse, in vivo, 26 mg/kg) | Pulmonary hemorrhage, Mild ([1]; mouse, in vivo, 26 mg/kg)
21.74%: Lung index inhibition rate (%) ([2]; 13 mg/kg)
2: Interstitial pneumonia, Mild ([1]; mouse, in vivo, 13 mg/kg) | Interstitial pneumonia, Moderate ([1]; mouse, in vivo, 13 mg/kg) | Pulmonary hemorrhage, Mild ([1]; mouse, in vivo, 13 mg/kg) | Pulmonary hemorrhage, Moderate ([1]; mouse, in vivo, 13 mg/kg) | Interstitial pneumonia, Mild ([3]; Low dose (40 mg/kg)) | Interstitial pneumonia, Moderate ([3]; Low dose (40 mg/kg)) | Pulmonary hemorrhage, Mild ([3]; Low dose (40 mg/kg)) | Pulmonary hemorrhage, Moderate ([3]; Low dose (40 mg/kg))
4: Interstitial pneumonia, Mild ([3]; High dose (80 mg/kg)) | Pulmonary hemorrhage, Mild ([3]; High dose (80 mg/kg))
1.177 ± 0.792: Lung index (X ± S) ([2]; 13 mg/kg)
0: Interstitial pneumonia, Severe ([1]; mouse, in vivo, 13 mg/kg) | Pulmonary hemorrhage, Severe ([1]; mouse, in vivo, 13 mg/kg) | Interstitial pneumonia, Severe ([1]; mouse, in vivo, 26 mg/kg) | Pulmonary hemorrhage, Severe ([1]; mouse, in vivo, 26 mg/kg) | Interstitial pneumonia, Moderate ([3]; High dose (80 mg/kg)) | Interstitial pneumonia, Severe ([3]; High dose (80 mg/kg)) | Pulmonary hemorrhage, Moderate ([3]; High dose (80 mg/kg)) | Pulmonary hemorrhage, Severe ([3]; High dose (80 mg/kg)) | Interstitial pneumonia, Severe ([3]; Low dose (40 mg/kg)) | Pulmonary hemorrhage, Severe ([3]; Low dose (40 mg/kg))
1: Interstitial pneumonia, Moderate ([1]; mouse, in vivo, 26 mg/kg) | Pulmonary hemorrhage, Moderate ([1]; mouse, in vivo, 26 mg/kg)

COc1cc(O)cc(C2OCC3C(c4ccc(OC5OC(CO)C(O)C(O)C5O)c(OC)c4)OCC23)c1 [Serial No. 1, (7,8,7′,8′)-7,7′-bisepoxy-5′-hydroxy-3,3′hydroxy-bismethoxylignan, 4-O-β-D-glucoside]
3: Pulmonary hemorrhage, Mild ([3]; High dose (80 mg/kg))
1: Pulmonary hemorrhage, Moderate ([3]; High dose (80 mg/kg))
4: Interstitial pneumonia, Mild [1, 4] | Pulmonary hemorrhage, Mild [1, 4] | Interstitial pneumonia, Mild ([3]; High dose (80 mg/kg))
2: Interstitial pneumonia, Mild [1, 5] | Interstitial pneumonia, Moderate [1, 5] | Pulmonary hemorrhage, Mild [1, 5] | Pulmonary hemorrhage, Moderate [1, 5] | Interstitial pneumonia, Mild ([3]; Low dose (40 mg/kg)) | Interstitial pneumonia, Moderate ([3]; Low dose (40 mg/kg)) | Pulmonary hemorrhage, Mild ([3]; Low dose (40 mg/kg)) | Pulmonary hemorrhage, Moderate ([3]; Low dose (40 mg/kg))
0: Interstitial pneumonia, Moderate [1, 4] | Interstitial pneumonia, Severe [1, 4] | Pulmonary hemorrhage, Moderate [1, 4] | Pulmonary hemorrhage, Severe [1, 4] | Interstitial pneumonia, Severe [1, 5] | Pulmonary hemorrhage, Severe [1, 5] | Interstitial pneumonia, Moderate ([3]; High dose (80 mg/kg)) | Interstitial pneumonia, Severe ([3]; High dose (80 mg/kg)) | Pulmonary hemorrhage, Severe ([3]; High dose (80 mg/kg)) | Interstitial pneumonia, Severe ([3]; Low dose (40 mg/kg)) | Pulmonary hemorrhage, Severe ([3]; Low dose (40 mg/kg))

COc1ccc([C@H]2OC[C@H]3[C@@H]2CO[C@H]3c2ccc(O[C@@H]3O[C@H](CO)[C@@H](O)[C@H](O)[C@H]3O)c(OC)c2)cc1OC [Serial No. 2, phillyrin]
4: Interstitial pneumonia, Mild ([1]; mouse, in vivo, 26 mg/kg) | Pulmonary hemorrhage, Mild ([1]; mouse, in vivo, 26 mg/kg)
2: Interstitial pneumonia, Mild ([1]; mouse, in vivo, 13 mg/kg) | Interstitial pneumonia, Moderate ([1]; mouse, in vivo, 13 mg/kg) | Pulmonary hemorrhage, Mild ([1]; mouse, in vivo, 13 mg/kg) | Pulmonary hemorrhage, Moderate ([1]; mouse, in vivo, 13 mg/kg) | Interstitial pneumonia, Mild ([3]; Low dose (40 mg/kg)) | Interstitial pneumonia, Moderate ([3]; Low dose (40 mg/kg)) | Pulmonary hemorrhage, Mild ([3]; Low dose (40 mg/kg)) | Pulmonary hemorrhage, Moderate ([3]; Low dose (40 mg/kg))
0: Interstitial pneumonia, Severe ([1]; mouse, in vivo, 13 mg/kg) | Pulmonary hemorrhage, Severe ([1]; mouse, in vivo, 13 mg/kg) | Interstitial pneumonia, Moderate ([1]; mouse, in vivo, 26 mg/kg) | Interstitial pneumonia, Severe ([1]; mouse, in vivo, 26 mg/kg) | Pulmonary hemorrhage, Moderate ([1]; mouse, in vivo, 26 mg/kg) | Pulmonary hemorrhage, Severe ([1]; mouse, in vivo, 26 mg/kg) | Interstitial pneumonia, Severe ([3]; High dose (80 mg/kg)) | Pulmonary hemorrhage, Severe ([3]; High dose (80 mg/kg)) | Interstitial pneumonia, Severe ([3]; Low dose (40 mg/kg)) | Pulmonary hemorrhage, Severe ([3]; Low dose (40 mg/kg))
21.88%: Lung index inhibition rate (%) ([2]; 13 mg/kg)
1.192 ± 0.543: Lung index (X ± S) ([2]; 3.25 mg/kg)
1: Interstitial pneumonia, Moderate ([3]; High dose (80 mg/kg)) | Pulmonary hemorrhage, Moderate ([3]; High dose (80 mg/kg))
20.74%: Lung index inhibition rate (%) ([2]; 3.25 mg/kg)
1.175 ± 0.259: Lung index (X ± S) ([2]; 13 mg/kg)
3: Interstitial pneumonia, Mild ([3]; High dose (80 mg/kg)) | Pulmonary hemorrhage, Mild ([3]; High dose (80 mg/kg))
